# In ChEMBL document CHEMBL4732061, “Synthesis, binding, and functional properties of tetrahydroisoquinolino-2-alkyl phenones as selective σR/TMEM97 ligands” (Eur J Med Chem, 2021):
# Assay: Selectivity ratio of Ki for displacement of [3H](+)-pentazocine from sigma 1 receptor in guinea pig brain membranes to Ki for displacement of [125I]-RHM-4 from sigma2 receptor in rat liver membranes
# Assay type: cell membranes
row,SMILES,Ratio Ki
1,COc1cc2c(cc1OC)CN(CCCCCCC(=O)c1c(C)c(OC)c(OC)c(OC)c1OC)CC2,> 751
2,COc1cc2c(cc1OC)CN(CCCCCC(=O)c1c(C)c(OC)c(OC)c(OC)c1OC)CC2,> 2630

# Second part, the compound after the results:
row,Ratio Ki,SMILES
1,53,COc1cc2c(cc1OC)CN(CCCCC(=O)c1c(C)c(OC)c(OC)c(OC)c1OC)CC2
2,> 196,COc1cc2c(cc1OC)CN(CCCC(=O)c1c(C)c(OC)c(OC)c(OC)c1OC)CC2
3,3,COc1cc2c(cc1OC)CN(CCC(=O)c1c(C)c(OC)c(OC)c(OC)c1OC)CC2
